Like-named read-outs stand apart in the source and are kept apart here.
[1] = heating temp. 60 °C, obs. temp. 40 °C
[2] = heating temp. 60 °C, obs. temp. 25 °C
[3] = heating temp. 40 °C, obs. temp. 40 °C

**Q.** For `CCCCC/C=C\C/C=C\CCCCCCCC(=O)Oc1ccc2c3c1O[C@H]1C(=O)CC[C@@]4(O)C(C2)N(CC2CC2)CC[C@]314` [Compound 53, (4aS,7aR,12bS)-3-(cyclopropylmethyl)-4a-hydroxy-7-oxo-2,3,4,4a,5,6,7,7a-octahydro-1H-4,12-methanobenzofuro[3,2-e]isoquinolin-9-yl (9Z,12Z)-octadeca-9,12-di.enoate], which “Approximate Solubility (mg/mL) in Excipient: Cottonseed oil” value (from here on “Approximate Solubility … Cottonseed oil”) [1] is on record?
**A.** The value was >403.8 mg/mL.

**Q.** What about the “Approximate Solubility (mg/mL) in Excipient: Ethanol” value (Ethanol, heating temp. 60 °C, obs. temp. 40 °C) of the same compound?
**A.** Its value is >404 mg/mL.

**Q.** For `C=C1CC[C@@]2(O)C3Cc4ccc(OCOC(=O)OCCCCCCCCCCCCCC)c5c4[C@@]2(CCN3CC2CC2)[C@H]1O5` [Compound 25, (((4aS,7aS,12bS)-3-(cyclopropylmethyl)-4a-hydroxy-7-methylene-2,3,4,4a,5,6,7,7a-octahydro-1H-4,12-methanobenzofuro[3,2-e]isoquinolin-9-yl)oxy)methyl tetradecyl carbonate], which “Approximate Solubility (mg/mL) in Excipient: Sesame oil” value (shortened to “Approximate Solubility … Sesame oil”) [2] is on record?
**A.** Its value is >404 mg/mL.

**Q.** With `CCCCCCCCCCCC(=O)OCOc1ccc2c3c1O[C@H]1C(=O)CC[C@@]4(O)C(C2)N(CC2CC2)CC[C@]314` [Compound 48, (((4aS,7aR,12bS)-3-(cyclopropylmethyl)-4a-hydroxy-7-oxo-2,3,4,4a,5,6,7,7a-octahydro-1H-4,12-methanobenzofuro[3,2-e]isoquinolin-9-yl)oxy)methyl dodecanoate] as the compound, how does the “Approximate Solubility … Sesame oil” value [2] read?
**A.** Its value is >404.8 mg/mL.

**Q.** With `C=C1CC[C@@]2(O)C3Cc4ccc(OC(=O)CCCCCCC/C=C/CCCCCCCC)c5c4[C@@]2(CCN3CC2CC2)[C@H]1O5` [Compound 15, (4aS,7aS,12bS)-3-(cyclopropylmethyl)-4a-hydroxy-7-methylene-2,3,4,4a,5,6,7,7a-octahydro-1H-4,12-methanobenzofuro[3,2-e]isoquinolin-9-yl (E)-octadec-9-enoate] as the compound, how does the “Approximate Solubility … Sesame oil” value [2] read?
**A.** The value was >403.94 mg/mL.

**Q.** What about the “Approximate Solubility … Sesame oil” value [1] of the same compound?
**A.** The value was >404 mg/mL.

**Q.** With `C=C1CC[C@@]2(O)C3Cc4ccc(OC(=O)OCCCCCCCCCCCC)c5c4[C@@]2(CCN3CC2CC2)[C@H]1O5` [Compound 6, (4aS,7aS,12bS)-3-(cyclopropylmethyl)-4a-hydroxy-7-methylene-2,3,4,4a,5,6,7,7a-octahydro-1H-4,12-methanobenzofuro[3,2-e]isoquinolin-9-yl dodecyl carbonate] as the compound, how does the “Approximate Solubility … Cottonseed oil” value [3] read?
**A.** The value was >420.8 mg/mL.

**Q.** For `CCCCCCCCCCCCCCCCOC(=O)OCOc1ccc2c3c1O[C@H]1C(=O)CC[C@@]4(O)C(C2)N(CC2CC2)CC[C@]314` [Compound 47, (((4aS,7aR,12bS)-3-(cyclopropylmethyl)-4a-hydroxy-7-oxo-2,3,4,4a,5,6,7,7a-octahydro-1H-4,12-methanobenzofuro[3,2-e]isoquinolin-9-yl)oxy)methyl hexadecyl carbonate], which “Approximate Solubility … Sesame oil” value [2] is on record?
**A.** The value was >404.9 mg/mL.

**Q.** With `C=C1CC[C@@]2(O)C3Cc4ccc(OCOC(=O)OCCCCCCCCCCCCCCCC)c5c4[C@@]2(CCN3CC2CC2)[C@H]1O5` [Compound 34, (((4aS,7aS,12bS)-3-(cyclopropylmethyl)-4a-hydroxy-7-methylene-2,3,4,4a,5,6,7,7a-octahydro-1H-4,12-methanobenzofuro[3,2-e]isoquinolin-9-yl)oxy)methyl hexadecyl carbonate] as the compound, how does the “Approximate Solubility … Cottonseed oil” value [2] read?
**A.** The value was >404 mg/mL.

**Q.** What about the “Approximate Solubility … Sesame oil” value [2] of the same compound?
**A.** Its value is >405 mg/mL.

**Q.** Which “Approximate Solubility … Cottonseed oil” value [3] does the source give for `C=C1CC[C@@]2(O)C3Cc4ccc(OC(=O)CCCCCCC/C=C\C/C=C\CCCCC)c5c4[C@@]2(CCN3CC2CC2)[C@H]1O5` [Compound 37, (4aS,7aS,12bS)-3-(cyclopropylmethyl)-4a-hydroxy-7-methylene-2,3,4,4a,5,6,7,7a-octahydro-1H-4,12-methanobenzofuro[3,2-e]isoquinolin-9-yl (9Z,12Z)-octadeca-9,12-dienoate] here?
**A.** The value was >405.3 mg/mL.
